Results from article PMC3785825 (Journal of the Royal Society Interface, 2013).

How the values were obtained:
[1] = system: CLR A273L/RAMP1 (CGRP receptor); assay: CGRP-stimulated cAMP (LANCE), A273L mutant; type: cell-based, human; details: residue A273 (mutated to leucine); effect of mutation on CGRP
Text: (§1) Curve fitting was done with […]
(§2) These residues were selected as they are most likely to incorporate the whole of ECL2 and approximately one turn of helices 4 and 5 immediately adjacent to the loop, based on our previous analysis. […] These are R274A, Y278A, D280A, C282A, W283A, I284A and T288A.

[2] = system: CLR R274A/RAMP1 (CGRP receptor); assay: CGRP-stimulated cAMP (LANCE), R274A mutant; type: cell-based, human
Text: as §1, §2

[3] = system: CLR Y277A/RAMP1 (CGRP receptor); assay: CGRP-stimulated cAMP (LANCE), Y277A mutant; type: cell-based, human; details: residue Y277; effect of alanine mutation on CGRP
Text: as §1, §2

[4] = system: CLR Y278A/RAMP1 (CGRP receptor); assay: CGRP-stimulated cAMP (LANCE), Y278A mutant; type: cell-based, human
Text: as §1, §2

[5] = system: CLR D280A/RAMP1 (CGRP receptor); assay: CGRP-stimulated cAMP (LANCE), D280A mutant; type: cell-based, human
Text: as §1, §2

[6] = system: CLR C282A/RAMP1 (CGRP receptor); assay: CGRP-stimulated cAMP (LANCE), C282A mutant; type: cell-based, human
Text: as §1, §2

[7] = system: CLR W283A/RAMP1 (CGRP receptor); assay: CGRP-stimulated cAMP (LANCE), W283A mutant; type: cell-based, human
Text: as §1, §2

[8] = system: CLR I284A/RAMP1 (CGRP receptor); assay: CGRP-stimulated cAMP (LANCE), I284A mutant; type: cell-based, human
Text: as §1, §2

[9] = system: CLR S285A/RAMP1 (CGRP receptor); assay: CGRP-stimulated cAMP (LANCE), S285A mutant; type: cell-based, human; details: residue S285; effect of alanine mutation on CGRP
Text: as §1, §2

[10] = system: CLR D287A/RAMP1 (CGRP receptor); assay: CGRP-stimulated cAMP (LANCE), D287A mutant; type: cell-based, human; details: residue D287; effect of alanine mutation on CGRP
Text: as §1, §2

[11] = system: CLR T288A/RAMP1 (CGRP receptor); assay: CGRP-stimulated cAMP (LANCE), T288A mutant; type: cell-based, human
Text: as §1, §2

[12] = system: CLR L290A/RAMP1 (CGRP receptor); assay: CGRP-stimulated cAMP (LANCE), L290A mutant; type: cell-based, human
Text: as §1, §2

[13] = system: CLR L291A/RAMP1 (CGRP receptor); assay: CGRP-stimulated cAMP (LANCE), L291A mutant; type: cell-based, human
Text: as §1, §2

[14] = system: CLR N281A/RAMP1 (CGRP receptor); assay: CGRP-stimulated cAMP (LANCE), N281A mutant; type: cell-based, human; details: Cos 7 cells
Text: as §1, §2

[15] = system: CLR Y292A/RAMP1 (CGRP receptor); assay: CGRP-stimulated cAMP (LANCE), Y292A mutant; type: cell-based, human; details: Cos 7 cells
Text: as §1, §2

[16] = system: CLR I294A/RAMP1 (CGRP receptor); assay: CGRP-stimulated cAMP (LANCE), I294A mutant; type: cell-based, human; details: Cos 7 cells
Text: as §1, §2

[17] = system: CLR ECL2 mutants A271 to I294 with human RAMP1; assay: CGRP-stimulated cAMP (LANCE), ECL2 alanine scan; type: cell-based; details: Cos 7 cells
Text: as §1, §2

[18] = system: mutated CGRP receptors (CLR ECL2 mutants/RAMP1); assay: CGRP radioligand binding, mutants with impaired cAMP; details: [^125I] iodohistidyl-human alpha CGRP, Cos 7 cell membranes; mutants with large impairments of cAMP production
Text: (§3) Accordingly, an ELISA to measure receptors at the cell surface was used (see the electronic supplementary materials, table S3). All of the mutants were expressed at the cell surface to within approximately 60% of WT levels. Reductions to this level of expression has been previously shown to have little effect on the potency of CGRP-mediated cAMP signalling for this or CTR expressed in Cos 7 cells and in this study, there was only a very low correlation between expression and pEC50 (r^2 = 0.23).

[19] = system: CLR Y277A/RAMP1 (CGRP receptor); assay: CGRP radioligand binding, Y277A mutant; details: Y277A: not reduced (exception); [^125I] iodohistidyl-human alpha CGRP, Cos 7 cell membranes
Text: as §3

For calcitonin gene-related peptide [CGRP], the CGRP effect [1] was “√”, the “cAMP reduction versus WT (pEC50)” value ([2]; R274A, Cos 7 cells, 30 min, room temperature) was “more than 10 fold” and the CGRP effect ([2]; residue R274, effect of alanine mutation on CGRP) was “√”. For the same substance, the CGRP effect [3] was “√”, the “cAMP reduction versus WT (pEC50)” value ([4]; Y278A, Cos 7 cells, 30 min, room temperature) was “more than 10 fold” and the CGRP effect ([4]; residue Y278, effect of alanine mutation on CGRP) was “√”. For the same substance, the “cAMP reduction versus WT (pEC50)” value ([5]; D280A, Cos 7 cells, 30 min, room temperature) was “more than 10 fold”, the CGRP effect ([5]; residue D280, effect of alanine mutation on CGRP) was “√” and the “cAMP reduction versus WT (pEC50)” value ([6]; C282A, Cos 7 cells, 30 min, room temperature) was “more than 10 fold”. The CGRP effect ([6]; residue C282, effect of alanine mutation on CGRP) was “√”, the “cAMP reduction versus WT (pEC50)” value ([7]; W283A, Cos 7 cells, 30 min, room temperature) was “more than 10 fold” and the CGRP effect ([7]; residue W283, effect of alanine mutation on CGRP) was “√”. For the same substance, the “cAMP reduction versus WT (pEC50)” value ([8]; I284A, Cos 7 cells, 30 min, room temperature) was “more than 10 fold”, the CGRP effect ([8]; residue I284, effect of alanine mutation on CGRP) was “√” and the CGRP effect [9] was “√”. For the same substance, the CGRP effect [10] was “√”, the “cAMP reduction versus WT (pEC50)” value ([11]; T288A, Cos 7 cells, 30 min, room temperature) was “more than 10 fold” and the CGRP effect ([11]; residue T288, effect of alanine mutation on CGRP) was “√”. The “reduction in EC50 values versus WT” value ([12]; L290A, Cos 7 cells) was “approx. eightfold”, the CGRP effect ([12]; residue L290, effect of alanine mutation on CGRP) was “√” and the “reduction in EC50 values versus WT” value ([13]; L291A, Cos 7 cells) was “approx. fourfold”. For the same substance, the CGRP effect ([13]; residue L291, effect of alanine mutation on CGRP) was “√”, the “potency change versus WT” value [14] was “small increase in potency” and the “maximal cAMP response (Emax) versus WT” value [15] was “significant but small increases in maximal cAMP response”. The “maximal cAMP response (Emax) versus WT” value [16] was “significant but small increases in maximal cAMP response”, the “pEC50 of mutants versus WT” value ([17]; 24 single mutants) was 14 of the 24 mutants were significantly different to WT and the “pEC50 change versus WT” value ([17]; six further mutants (not given)) was “small but significant reductions in pEC50”. For the same substance, the “affinity for the radioligand” value [18] was “reduced affinity for the radioligand” and the “affinity for the radioligand” value [19] was “except Y277A”.
